Biological target: epidermal growth factor receptor (EGFR) (human) (UniProt P00533)
Test: cell-based or functional assay

For “PD-NRs functionalized with anti-EGFR antibodies (anti-EGFR-PD-NRs): ERBITUX (cetuximab) immobilized on polydopamine-coated gold nanorods (antibody)”, the viability of OSCC15 cells after incubation with 9.92 pM NRs and 5 minutes of irradiation was 24%.
